The supplement of paper PMC8183993
Counter-ions that a name gives are not always drawn. What follows is the remainder of the data, with few or none of the lowest values.

What follows are compounds tested on U2OS (assay: mean cytoplasmic OPP incorporation (global translation) relative to DMSO (% of DMSO); higher = more protein synthesis). Conditions: 10 µM; 24 h.
Protocol: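 Primary image-based screen in U2OS cells: compounds at 10 uM for 24 h, then a 1 h o-propargyl-puromycin (OPP) pulse, click labelling, and high-throughput microscopy. Mean cytoplasmic OPP intensity and nuclei count were normalised to DMSO wells within each plate (DMSO = 100) and averaged over triplicate plates.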
For `N/C(=N/CCc1ccc(I)cc1)SCCCc1cnc[nH]1` [Iodophenpropit dihydrobromide], the “mean cytoplasmic OPP incorporation” value was 97.5.
